Measurements published in patent US6261814A, “Carboxylic acid reductase, and methods of using same” (University of Iowa Research Foundation, priority 1998, dated 2001).

Test system: O=C(O)c1ccccc1
Experiment: purified protein, by the assay type
Details: other: purified enzyme; mean of three determinations; pH 7.5; 25.0 °C

With “carboxylic acid reductase (aryl-aldehyde oxidoreductase) (Nocardia iowensis)” the Km was 645 ± 75 µM.
